Laboratory results reported in publication PMC3582033 (Cell, 2011).

Tested on: TRIM33 PHD finger
Assay: ITC binding to PHD finger
Details: histone H3(1-15)

In the case of “histone H3(1-15) containing unmodified lysine 4 and trimethylated lysine 9: histone H3(1-15) containing unmodified lysine 4 and trimethylated lysine 9”, the binding preference is reported as “prefers to bind”.
